Experimental data from patent US12435062B2, “Amide compounds and uses thereof” (HUTCHISON MEDIPHARMA LIMITED, priority 2020, dated 2025).

Protein sequences, listed by entry. Tags and fused reporters are not part of them. Residues count along the entry.
UniProt P07333, 20-972 limits assumed: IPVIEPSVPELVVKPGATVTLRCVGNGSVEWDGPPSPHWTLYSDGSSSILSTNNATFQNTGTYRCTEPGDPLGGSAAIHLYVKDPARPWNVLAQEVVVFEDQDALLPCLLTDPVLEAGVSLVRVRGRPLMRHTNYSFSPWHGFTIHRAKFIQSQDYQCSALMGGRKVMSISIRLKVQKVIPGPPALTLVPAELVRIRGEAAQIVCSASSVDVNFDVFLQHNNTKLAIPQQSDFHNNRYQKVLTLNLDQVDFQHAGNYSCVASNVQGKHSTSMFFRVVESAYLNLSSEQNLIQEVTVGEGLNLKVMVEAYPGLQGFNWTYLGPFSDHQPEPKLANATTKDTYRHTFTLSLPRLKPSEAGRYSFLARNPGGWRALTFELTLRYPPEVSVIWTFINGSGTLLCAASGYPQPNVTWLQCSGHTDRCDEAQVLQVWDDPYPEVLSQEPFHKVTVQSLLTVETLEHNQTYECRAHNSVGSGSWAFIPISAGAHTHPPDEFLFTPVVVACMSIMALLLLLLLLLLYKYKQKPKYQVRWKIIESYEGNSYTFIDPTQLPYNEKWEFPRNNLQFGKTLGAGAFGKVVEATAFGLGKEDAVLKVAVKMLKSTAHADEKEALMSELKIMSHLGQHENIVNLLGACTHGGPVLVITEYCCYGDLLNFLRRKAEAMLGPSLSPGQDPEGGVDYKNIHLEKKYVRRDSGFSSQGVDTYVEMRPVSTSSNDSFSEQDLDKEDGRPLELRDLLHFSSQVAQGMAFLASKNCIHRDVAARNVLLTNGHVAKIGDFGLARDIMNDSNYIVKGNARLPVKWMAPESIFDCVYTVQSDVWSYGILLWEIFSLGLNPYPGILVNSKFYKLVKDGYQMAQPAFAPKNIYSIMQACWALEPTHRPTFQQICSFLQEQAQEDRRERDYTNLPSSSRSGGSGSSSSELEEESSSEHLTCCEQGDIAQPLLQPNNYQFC

How the values were obtained:
[1] = biological target: Recombinant human CSF1R kinase (Homo sapiens (Human), UniProt P07333); conditions: Z-LYTE Tyr 1 peptide substrate
[2] = biological target: CSF1R phosphorylation in THP-1 cells (Homo sapiens (Human), UniProt P07333); assay: Detection of CSF1R phosphorylation activity at cell level (THP-1, M-CSF stimulated, ELISA); conditions: p-CSF1R ELISA, compound 60 min, 300 ng/mL M-CSF 1 min
Ba/F3^BCR-FMS-11 cells = assay: Cell proliferation experiment (Ba/F3^BCR-FMS-11, cckit-8); conditions: Ba/F3^BCR-FMS-11 cell proliferation, 72 hours
Procedure: Cell Proliferation Experiment
Ba/F3^BCR-FMS-11, mouse primary B lymphocytes stably expressing the BCR-FMS fusion gene. The cells were cultured in an RPMI 1640 medium containing 10% FBS.
2. Reagents and instruments
• cckit-8 kit: Dojindo, 9 CK04; • Envision: Perkin Elmer; • Cell culture plate: Facol, 9353027. 3. Experimental steps
The BCR-FMS fusion gene was transfected into Ba/F3 cells, and the cell line Ba/F3^BCR-FMS-11 that stably expresses BCR-FMS and grows depending on CSF-1R was screened. Ba/F3^BCR-FMS-11 cell proliferation experiments is completed by using the Cell Counting kit cckit-8 in a 96-well plate. In a 96-well plate, 5000/well of Ba/F3^BCR-FMS-11 cells were inoculated at 100 μL/well. After 24 hours, the test compound was diluted to 10, 3.33, 1.11, 0.37, 0.12, 0.037, 0.012, and 0.004 μM, the concentration of DMSO was kept at 5%. […] The optical density absorption value at 450 nm of each well was detected by using Perkin Elmer Envision instrument.
wherein • Drug-treated well read-out: indicating the optical density signal of a cell well with the test compound treatment. • Cell well read-out: indicating the optical density signal of a cell well not treated with the test compound (only 0.5% DMSO). • Background read-out: indicating the optical density signal of a well with the cell medium. […]

Row | IC50 [1] [nM] | IC50 [2] [nM] | IC50 (Ba/F3^BCR-FMS-11 cells) [nM] | SMILES
1 | 17 | 26 | 11 | Cn1ccc(-c2cc(Oc3ccc(NC(=O)c4cccn(C5COC5)c4=O)nc3)ccn2)c1
2 | 19 | 256 | 72 | CC(C)n1cccc(C(=O)Nc2ccc(Oc3ccnc(-c4cnn(C)c4)c3)cc2)c1=O
